≈ marks a conversion by molar mass, not a printed value.
Test system: nanobacteria
Experiment: Antibiotic sensitivity test by Minimal Inhibition Concentration (MIC), 96-well plates, absorbance at 650 nm
Conditions: light or radiation study, 288 h

## NC[C@H]1O[C@H](O[C@H]2[C@H](O)[C@@H](O[C@H]3O[C@H](CO)[C@@H](O)[C@H](N)[C@H]3O)[C@H](N)C[C@@H]2N)[C@H](O)[C@@H](O)[C@@H]1O [Kanamycin]
read-out: MIC 50
  IC50: 50 µg/mL (≈ 103 µM)
read-out: MIC 90
  IC90: 200 µg/mL (≈ 413 µM)

Reference: EP1094711B1, “METHODS FOR ERADICATION OF NANOBACTERIA” (Nanobac Oy, priority 1998, dated 2000)
